# Biological target: BRD4-BD1 (Homo sapiens, UniProt O60885)
# Test: BRD4-H4 tetraacetylated peptide inhibition AlphaScreen
# Details: read-out: BRD4-BD1 IC50; 15 nM GST-BRD4-BD1 (aa 44-168), 15 nM biotinylated Acetyl-Histone H4 (Lys5, 8, 12, 16) peptide, 30 min at RT
compound,measurement,value
Cc1cc(-c2nc3cc4c(nc3n2[C@@H](C)c2ccccc2)N(C)C(=O)C4(C)C)cn(C)c1=O,IC50,0.048 µM

# From patent US9428515B2, “Benzimidazole derivatives” (Boehringer Ingelheim International GmbH, priority 2014, dated 2016)
